Experimental data from ChEMBL document CHEMBL1201862, “PubChem BioAssay data set” (2004).

Key:
Test in all cases: growth of human tumour cells (NCI), 48 h
NCI-H226 = test system: NCI-H226
SN12C = test system: SN12C
SK-MEL-28 = test system: SK-MEL-28
U-251 = test system: U-251
MDA-MB-231 = test system: MDA-MB-231
NCI-H460 = test system: NCI-H460
Malme-3M = test system: Malme-3M
M14 = test system: M14
SK-MEL-2 = test system: SK-MEL-2
TK-10 = test system: TK-10
RXF 393 = test system: RXF 393
T47D = test system: T47D
SK-OV-3 = test system: SK-OV-3
SNB-75 = test system: SNB-75
OVCAR-8 = test system: OVCAR-8
HT-29 = test system: HT-29
COLO 205 = test system: COLO 205
HOP-62 = test system: HOP-62
CAKI-1 = test system: CAKI-1
OVCAR-4 = test system: OVCAR-4
BT-549 = test system: BT-549
OVCAR-3 = test system: OVCAR-3
DU-145 = test system: DU-145
SNB-19 = test system: SNB-19
SW-620 = test system: SW-620
MDA-N = test system: MDA-N
LOX IMVI = test system: LOX IMVI
ACHN = test system: ACHN
PC-3 = test system: PC-3

Measured: GI50

O=C1c2c(O)ccc(O)c2C(=O)c2c(NCCNCCO)ccc(NCCNCCO)c21 [MITOXANTRONE]
active: NCI-H226 = < 10 nM | SN12C < 13.3 nM | SK-MEL-28 = 322 nM | U-251 = < 10.8 nM | MDA-MB-231 = 196 nM | NCI-H460 = < 10 nM | Malme-3M 156 nM | M14 = 183 nM | SK-MEL-2 = 209 nM | TK-10 = 240 nM | RXF 393 = 41.6 nM | T47D < 46.6 nM | SK-OV-3 = 24.6 nM | SNB-75 = < 13.1 nM | OVCAR-8 = 25.5 nM | HT-29 = 135 nM | COLO 205 = 135 nM | HOP-62 = < 12.4 nM | CAKI-1 = 13.4 nM | OVCAR-4 = 344 nM | BT-549 = 104 nM | OVCAR-3 = 361 nM | DU-145 = 22.5 nM | SNB-19 = 24 nM | SW-620 = 93.8 nM | MDA-N 260 nM | LOX IMVI 21.4 nM | ACHN < 10 nM | PC-3 = 125 nM

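Grown in 96-well plates, cells were treated for 48 hours with each compound at five concentrations. Insufficient inhibition: endpoint recorded as highest concentration tested. Abbreviation: GI50, concentration required for 50% inhibition of growth.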 The source made the active and inactive calls. Rule as the data show it: active = GI50 up to about 1.1 µM and inactive = higher.
